Literature values as cited in article PMC3094488 (European journal of pharmacology, 2011).

By UniProt entry, the sequences of proteins in these tests, tags left out.
UniProt P47746, whole entry: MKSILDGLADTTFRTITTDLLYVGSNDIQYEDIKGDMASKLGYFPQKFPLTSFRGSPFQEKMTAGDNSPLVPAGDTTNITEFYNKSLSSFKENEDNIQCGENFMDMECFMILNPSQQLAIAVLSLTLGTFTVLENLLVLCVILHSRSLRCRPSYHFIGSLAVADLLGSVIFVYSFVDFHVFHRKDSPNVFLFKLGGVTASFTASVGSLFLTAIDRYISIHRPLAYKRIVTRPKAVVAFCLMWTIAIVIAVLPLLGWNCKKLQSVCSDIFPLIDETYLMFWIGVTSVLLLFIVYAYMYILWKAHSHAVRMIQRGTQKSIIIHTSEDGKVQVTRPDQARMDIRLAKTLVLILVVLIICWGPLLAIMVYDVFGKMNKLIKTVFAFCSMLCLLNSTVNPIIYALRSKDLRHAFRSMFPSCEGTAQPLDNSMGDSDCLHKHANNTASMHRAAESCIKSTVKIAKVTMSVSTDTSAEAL

Molecular target: CB1 receptors (Mus musculus, UniProt P47746)
Settings: ref Atwood et al., 2010; Straiker and Mackie, 2005; cited from earlier work

In the case of `CCCCCc1cc(O)c2c(c1)OC(C)(C)[C@@H]1CCC(C)=C[C@@H]21` [THC, Δ^9-tetrahydrocannabinol], the “effect on EPSCs” value is listed as “no inhibition of EPSCs”.
